Molecular target: Type I collagen prepared from rat tail tendon (rat) (UniProt P02454)
Assay: modified ELISA on plate coated with rat tail type I collagen, anti-polyhistidine detection, Scatchard analysis

By UniProt entry, the sequences of proteins in these tests, tags left out. Residues count along the entry.
UniProt P02454, 152-1207 limits assumed, chain 1 of 2: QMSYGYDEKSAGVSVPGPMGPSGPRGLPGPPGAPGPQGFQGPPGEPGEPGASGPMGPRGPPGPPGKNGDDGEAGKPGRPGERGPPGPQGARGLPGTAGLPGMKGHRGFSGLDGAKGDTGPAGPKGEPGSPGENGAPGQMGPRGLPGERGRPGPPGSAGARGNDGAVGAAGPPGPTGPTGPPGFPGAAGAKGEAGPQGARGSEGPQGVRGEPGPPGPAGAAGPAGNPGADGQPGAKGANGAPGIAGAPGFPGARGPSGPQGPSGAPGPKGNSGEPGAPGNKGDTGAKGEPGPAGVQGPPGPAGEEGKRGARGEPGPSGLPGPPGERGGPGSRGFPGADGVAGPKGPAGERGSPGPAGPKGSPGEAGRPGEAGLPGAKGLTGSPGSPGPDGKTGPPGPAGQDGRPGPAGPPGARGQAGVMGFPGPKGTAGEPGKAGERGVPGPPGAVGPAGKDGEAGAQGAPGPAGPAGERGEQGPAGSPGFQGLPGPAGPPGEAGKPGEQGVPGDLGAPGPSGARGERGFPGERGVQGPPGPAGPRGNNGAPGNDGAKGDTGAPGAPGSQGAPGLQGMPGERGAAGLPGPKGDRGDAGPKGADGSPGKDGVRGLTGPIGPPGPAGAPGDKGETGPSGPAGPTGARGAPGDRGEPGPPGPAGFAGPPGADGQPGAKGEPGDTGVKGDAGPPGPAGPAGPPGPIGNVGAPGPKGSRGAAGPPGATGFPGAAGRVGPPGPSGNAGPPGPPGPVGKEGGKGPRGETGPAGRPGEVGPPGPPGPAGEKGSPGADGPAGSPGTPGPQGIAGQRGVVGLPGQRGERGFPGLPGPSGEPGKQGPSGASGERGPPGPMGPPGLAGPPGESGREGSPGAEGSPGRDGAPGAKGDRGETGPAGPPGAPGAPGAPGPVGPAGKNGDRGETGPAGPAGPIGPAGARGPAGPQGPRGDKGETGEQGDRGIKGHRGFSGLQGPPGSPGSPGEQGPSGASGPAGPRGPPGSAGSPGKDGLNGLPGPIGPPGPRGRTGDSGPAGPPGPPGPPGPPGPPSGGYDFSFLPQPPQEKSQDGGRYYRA

Substance: Native human SDF-1α (NAT-SDF-1α), with 6×His tag (from UniProt O62657 22-89) (ligand)
- Kd: 1340 nM
